Results: patent US20100227876A1 (priority 2009, published 2010)
Values joined by “and” are separate entries in the source; they are usually repeats but may differ in a detail not shown here. Identical values can stand only once.

How the values were obtained:
[1] = tested on: male Sprague-Dawley rats; experiment: Colorectal distension assay (CRD), visceral pain model, nociceptive threshold; type: in vivo, rat; details: for ED50 (M.P.E.=50%): at peak effect post-injection
[2] = tested on: Male Sprague-Dawley adult rats; experiment: Place conditioning (place preference/aversion) in a black-white shuttle-box

Compound	duration of antinociception ([1]; CRD, rat, SC)	peak effect, time post injection ([1]; CRD, rat, SC)	ED50 (M.P.E.=50%) ([1]; CRD, rat, SC)	change of analgesic effect (M.P.E.) after n-BNI pretreatment compared to saline pretreatment ([1]; n-BNI 10 mg/kg SC 48 hrs before, 15 (and 30) minutes post-injection)	percent of time spent in drug-associated compartment (score) ([2]; HDS1: high-dose spiradoline 1.2 mg/kg SC, first test, Group D, Test 1)	percent of time spent in drug-associated compartment (score) ([2]; HDS2: high-dose spiradoline 1.2 mg/kg SC, second test, Group D, Test 4)	percent of time spent in drug-associated compartment (score) ([2]; LDS1: low-dose spiradoline 0.3 mg/kg SC, first test, Group D, Test 2)	percent of time spent in drug-associated compartment (score) ([2]; LDS2: low-dose spiradoline 0.3 mg/kg SC, second test, Group C, Test 3)	percent of time spent in drug-associated compartment (score) ([2]; MDS1: medium-dose spiradoline 0.6 mg/kg SC, first test, Group D, Test 3)	percent of time spent in drug-associated compartment (score) ([2]; MDS2: medium-dose spiradoline 0.6 mg/kg SC, second test, Group C, Test 4)
CN(C(=O)Cc1ccc(Cl)c(Cl)c1)C1CCC2(CCCO2)CC1N1CCCC1 (stereo not drawn)	2 h	15 min	0.56 mg/kg	neither fentanyl nor spiradoline single-dose ANC was significantly altered	34.67%	29.10%	45.28%	44.03%	39.58%	38.38%
CN(C(=O)Cc1cccc2occc12)[C@H]1CC[C@@]2(CCCO2)C[C@@H]1N1CCCC1		30 min	0.077 (0.04-0.2) mg/kg and 0.077 mg/kg							
